ChEMBL document CHEMBL5727175, “Inhibitors of beta-secretase” (2019)
Several values for one entry are separate records, joined by “and”; a condition that tells them apart may be missing. Equal values may be shown once.

Molecular target: Beta-secretase 1 (Homo sapiens, UniProt P56817)
Assay: BACE Assay: For each compound being tested, the BACE activity was monitored in a fluorescence quenching assay (FRET) using the ectodomain of BACE (aa 1-454) fused to a myc-his tag and secreted from HEK293/BACEect. cells into OptiMEM (Invitrogen) as enzyme source and a substrate peptide derived from the APP-Swedish mutation which possesses a Cy3-fluorophore at the N-terminus and a Cy5Q-quencher at

Structure (SMILES): COC1CCC2(CC1)Cc1ccc(Br)cc1C21N=C(N)N(C)C1=O (stereo unspecified)
- IC50: 3.3 nM and 4.9 nM
